Experimental findings from patent US6689803B2, “Compositions and methods for treating surgical adhesions” (Angiotech Pharmaceuticals, Inc., priority 1996, dated 2004) are described below.

A short description of data set [1]: Octanol/water partition coefficient in enhancer solutions. It counts as physicochemical.
Data set [2] in a line: In vitro release of paclitaxel from polymeric formulations. It counts as physicochemical. Particulars: star-shaped PLA and PLGA microspheres.
The nature of data set [3]: Solubility / complexation of paclitaxel with cyclodextrins. It counts as physicochemical. To be noted: 37° C.
The test system of data set [4] is chick chorioallantoic membrane (CAM) vasculature.

Structures are written as SMILES. Read-outs that look alike come from different tables or passages of the source.

On to `CC(=O)O[C@H]1C(=O)[C@@]2(C)[C@H]([C@H](OC(=O)c3ccccc3)[C@]3(O)C[C@H](OC(=O)[C@H](O)[C@@H](NC(=O)c4ccccc4)c4ccccc4)C(C)=C1C3(C)C)[C@]1(OC(C)=O)CO[C@@H]1C[C@@H]2O` [paclitaxel], for which the Ko/w is 6.88 in data set [1] (Ethanol, octanol/PBS pH 7.4, 37° C.); “∞” in data set [1] (Isopropyl myristate, octanol/PBS pH 7.4, 37° C.); “∞” in data set [1] (Oleic acid, octanol/PBS pH 7.4, 37° C.); 42.39 in data set [1] (Propylene glycol:ethanol:isopropyl myristate (4.0:3.5:0.5)); 37.13 in data set [1] (Propylene glycol, octanol/PBS pH 7.4, 37° C.); 43.45 in data set [1] (Transcutol:isopropyl myristate (9:1)). Also, the Ko/w in data set [1] (Transcutol, octanol/PBS pH 7.4, 37° C.) was 25.25. In data set [2], the “release rate relative to conventional linear PLA and PLGA microspheres” value fell in the range of 3 to 10 times faster. In addition, the “stability constant, second order complex” value in data set [3] (HPβ-CD) came out at 7965 M⁻¹; in data set [3] (HPγ-CD), 1886 M⁻¹; in data set [3] (γ-CD) it was 785 M⁻¹.

Regarding `CC[C@]1(O)C[C@@H]2CN(CCc3c([nH]c4ccccc34)[C@@](C(=O)OC)(c3cc4c(cc3OC)N(C)[C@H]3[C@@](O)(C(=O)OC)[C@H](OC(C)=O)[C@]5(CC)C=CCN6CC[C@]43[C@@H]65)C2)C1` [vinblastine], the Inhibition/n result in data set [4] (PCL paste (3 mg), 0.25%) was “effective in inhibiting angiogenesis”; in data set [4] (PCL paste (3 mg), 1%) it was “effective in inhibiting angiogenesis”; in data set [4] (PCL paste (3 mg), 2%), “too toxic”; in data set [4] (in vivo), “effective in inhibiting angiogenesis”; in data set [4] (methylcellulose (10 ul), 2 ug), “too toxic”; in data set [4] (methylcellulose (10 ul), 9 ug) it was “too toxic”.
